Usually IC50 stands for the midpoint of a concentration-inhibition curve. Broadly, the inhibition is the drop in the measured response relative to a control, in per cent.

Chains of the proteins cited; added tags and fusions are not shown. Lines headed by an entry give the natural chain unless they say otherwise; changes in a name come on top.
UniProt P06493, whole entry: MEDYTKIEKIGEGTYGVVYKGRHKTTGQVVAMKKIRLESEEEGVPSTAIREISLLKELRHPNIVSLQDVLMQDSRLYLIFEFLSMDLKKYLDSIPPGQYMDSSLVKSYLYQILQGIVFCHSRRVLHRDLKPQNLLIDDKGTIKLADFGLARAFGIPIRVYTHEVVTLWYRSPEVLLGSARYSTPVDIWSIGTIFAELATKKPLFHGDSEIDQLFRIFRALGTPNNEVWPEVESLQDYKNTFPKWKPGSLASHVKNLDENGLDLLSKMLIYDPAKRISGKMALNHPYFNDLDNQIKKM
UniProt P50750, whole entry: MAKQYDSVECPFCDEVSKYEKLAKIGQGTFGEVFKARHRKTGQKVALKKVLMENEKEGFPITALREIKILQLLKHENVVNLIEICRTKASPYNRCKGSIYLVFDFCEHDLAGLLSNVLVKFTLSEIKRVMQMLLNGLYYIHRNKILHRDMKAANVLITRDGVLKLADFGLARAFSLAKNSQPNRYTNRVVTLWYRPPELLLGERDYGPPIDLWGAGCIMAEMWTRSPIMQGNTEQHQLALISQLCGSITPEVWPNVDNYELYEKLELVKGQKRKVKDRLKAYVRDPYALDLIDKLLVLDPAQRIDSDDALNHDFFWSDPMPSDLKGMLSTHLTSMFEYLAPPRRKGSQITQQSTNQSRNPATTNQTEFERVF
UniProt Q00535, whole entry, species assumed: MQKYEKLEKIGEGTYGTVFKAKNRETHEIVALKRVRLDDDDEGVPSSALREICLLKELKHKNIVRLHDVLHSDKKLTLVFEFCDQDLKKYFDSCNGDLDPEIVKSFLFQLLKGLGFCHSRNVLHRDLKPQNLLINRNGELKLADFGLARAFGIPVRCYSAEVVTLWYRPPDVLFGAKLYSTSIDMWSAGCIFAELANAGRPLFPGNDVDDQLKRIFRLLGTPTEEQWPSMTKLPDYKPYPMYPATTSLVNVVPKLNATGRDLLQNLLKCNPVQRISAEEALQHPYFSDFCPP
UniProt P11802: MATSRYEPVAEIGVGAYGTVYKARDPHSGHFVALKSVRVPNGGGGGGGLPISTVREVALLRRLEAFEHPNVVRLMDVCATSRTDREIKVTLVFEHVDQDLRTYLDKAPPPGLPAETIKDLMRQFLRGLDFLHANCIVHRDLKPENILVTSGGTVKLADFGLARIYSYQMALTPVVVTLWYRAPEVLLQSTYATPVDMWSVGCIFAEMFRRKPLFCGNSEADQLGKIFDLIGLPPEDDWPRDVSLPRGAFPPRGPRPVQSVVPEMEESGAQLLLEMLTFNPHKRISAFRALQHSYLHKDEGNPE
UniProt P50613: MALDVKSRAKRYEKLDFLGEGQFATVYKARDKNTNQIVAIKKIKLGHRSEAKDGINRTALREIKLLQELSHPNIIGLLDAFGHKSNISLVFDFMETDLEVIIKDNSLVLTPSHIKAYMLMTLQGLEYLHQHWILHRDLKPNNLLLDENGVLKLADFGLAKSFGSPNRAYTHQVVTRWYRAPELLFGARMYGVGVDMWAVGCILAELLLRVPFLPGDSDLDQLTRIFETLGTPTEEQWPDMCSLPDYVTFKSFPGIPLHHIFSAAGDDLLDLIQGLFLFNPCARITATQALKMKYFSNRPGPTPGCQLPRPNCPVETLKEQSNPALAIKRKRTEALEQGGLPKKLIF

Among the data in PMC6111440, “Cyclin-Dependent Kinase (CDK) Inhibitors: Structure–Activity Relationships and Insights into the CDK-2 Selectivity of 6-Substituted 2-Arylaminopurines” (Journal of Medicinal Chemistry, 2016) are IC50, inhibition and chemical stability values, retold here.

The target of data set [1] is CDK2/A (Homo sapiens, UniProt P24941). Particulars: read-out: CDK2 Inhibitory Activity IC50; Table 3.
The target in data set [2] is Human CDK1/B (Homo sapiens, UniProt P06493). The settings on record: read-out: CDK1 Inhibitory Activity IC50; Table 3.
The target of data set [3] is CDK9/T (Homo sapiens, UniProt P50750). Briefly: biochemical. Particulars: read-out: CDK9 Inhibition at 10 μM (%).
The target of data set [4] is CDK5 (Homo sapiens, UniProt Q00535). The settings on record: read-out: CDK5 Inhibitory Activity IC50; Table 3.
For data set [5], the target named is CDK4/D (Homo sapiens, UniProt P11802). In words: biochemical. Particulars: read-out: CDK4 Inhibition at 10 μM (%).
The target in data set [6] is CDK7/H (Homo sapiens, UniProt P50613). In words: biochemical. Particulars: read-out: CDK7 Inhibition at 10 μM (%).
For data set [7] the following is noted: cited from earlier work.

Take `NS(=O)(=O)c1ccc(Nc2nc(OCC3CCCCC3)c3cn[nH]c3n2)cc1` [Compound 91, 4-((4-(Cyclohexylmethoxy)-1H-pyrazolo[3,4-d]pyrimidin-6-yl)amino)benzenesulfonamide]: the figures for the IC50 in data set [1] and in data set [2] were 18 ± 1 nM and 1600 ± 200 nM, respectively.
Turning to `Nc1nc(OCC2CCCCC2)c2nc[nH]c2n1` [Compound 1, 2-amino-6-cyclohexylmethoxypurine, reference compound], the figures for the inhibition at 10 µM in data set [3], in data set [5] and in data set [6] were 42%, 33% and 44%, respectively. Besides, the IC50 in data set [4] is 97000 ± 3000 nM.
`COc1nc(N)nc2nc[nH]c12` [2-amino-6-methoxypurine]: the chemical stability result in data set [7] is reported as “relatively poor chemical stability”.
